Data on one compound can be found in ChEMBL document CHEMBL3085723, “Design, synthesis and discovery of picomolar selective α4β2 nicotinic acetylcholine receptor ligands” (J Med Chem, 2013).

By UniProt entry, the sequences of proteins in these tests, tags left out. Where a name states a change or a piece, a line headed by the entry shows the natural chain unless it says otherwise.
UniProt P17787: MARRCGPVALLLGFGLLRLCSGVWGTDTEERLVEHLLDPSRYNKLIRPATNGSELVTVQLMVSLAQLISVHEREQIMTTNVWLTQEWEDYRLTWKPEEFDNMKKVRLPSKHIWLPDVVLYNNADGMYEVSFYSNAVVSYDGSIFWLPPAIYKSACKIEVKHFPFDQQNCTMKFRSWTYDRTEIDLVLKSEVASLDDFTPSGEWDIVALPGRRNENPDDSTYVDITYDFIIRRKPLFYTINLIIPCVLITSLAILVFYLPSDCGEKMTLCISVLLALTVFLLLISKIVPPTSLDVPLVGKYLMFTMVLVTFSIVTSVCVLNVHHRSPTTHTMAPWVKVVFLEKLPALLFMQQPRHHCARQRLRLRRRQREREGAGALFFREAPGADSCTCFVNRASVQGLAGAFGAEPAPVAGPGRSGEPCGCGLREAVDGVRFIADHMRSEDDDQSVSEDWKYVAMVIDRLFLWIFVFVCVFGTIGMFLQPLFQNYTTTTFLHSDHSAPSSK
UniProt P43681: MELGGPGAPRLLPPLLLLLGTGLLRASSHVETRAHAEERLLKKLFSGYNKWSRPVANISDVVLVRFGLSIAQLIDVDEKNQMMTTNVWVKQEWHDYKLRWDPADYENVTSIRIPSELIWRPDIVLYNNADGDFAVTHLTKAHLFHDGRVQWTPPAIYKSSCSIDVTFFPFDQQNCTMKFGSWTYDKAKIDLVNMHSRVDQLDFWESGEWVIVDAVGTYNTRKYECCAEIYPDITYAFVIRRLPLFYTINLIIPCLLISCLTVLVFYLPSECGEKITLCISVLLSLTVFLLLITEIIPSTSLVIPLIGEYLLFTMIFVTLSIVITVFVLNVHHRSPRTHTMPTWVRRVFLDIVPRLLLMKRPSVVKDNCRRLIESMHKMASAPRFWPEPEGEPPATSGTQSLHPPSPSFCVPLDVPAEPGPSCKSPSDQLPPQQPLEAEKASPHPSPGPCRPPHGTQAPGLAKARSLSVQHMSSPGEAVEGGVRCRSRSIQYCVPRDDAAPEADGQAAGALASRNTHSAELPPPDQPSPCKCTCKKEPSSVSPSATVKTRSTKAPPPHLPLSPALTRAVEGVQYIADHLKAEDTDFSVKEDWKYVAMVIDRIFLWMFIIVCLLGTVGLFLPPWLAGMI

This test addresses Neuronal acetylcholine receptor; alpha4/beta2 (Homo sapiens, UniProt P17787+P43681). In words: Agonist activity at human alpha4beta2 nAChR assessed as stimulation of [86Rb+] efflux after 2 mins by cell-based liquid scintillation counting relative to nicotine. The method in brief: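 Human α4β2 stably expressed in YXα4β2H1 cells, grown 18–24 h to 85–95% confluence and loaded with ⁸⁶Rb⁺ (2 μCi/mL) for 4 h at 37 °C. Cells exposed 2 min to eight ligand concentrations in HEPES buffer, pH 7.4. Efflux counted as % of total loading (medium plus NaOH lysate), net of basal.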

One may read the Emax as the size of the effect at its maximum, as opposed to the concentration needed. In the case of `c1cnc2cc3c(cc2n1)[C@@H]1CNC[C@H]3C1` [VARENICLINE], the Emax turned out to be 45%.
